Reference: ChEMBL document CHEMBL5113531, “Discovery of Potent Cholinesterase Inhibition-Based Multi-Target-Directed Lead Compounds for Synaptoprotection in Alzheimer's Disease” (J Med Chem, 2022)

The chains behind the UniProt entries cited, without tags or fusion partners.
UniProt P06276, whole entry: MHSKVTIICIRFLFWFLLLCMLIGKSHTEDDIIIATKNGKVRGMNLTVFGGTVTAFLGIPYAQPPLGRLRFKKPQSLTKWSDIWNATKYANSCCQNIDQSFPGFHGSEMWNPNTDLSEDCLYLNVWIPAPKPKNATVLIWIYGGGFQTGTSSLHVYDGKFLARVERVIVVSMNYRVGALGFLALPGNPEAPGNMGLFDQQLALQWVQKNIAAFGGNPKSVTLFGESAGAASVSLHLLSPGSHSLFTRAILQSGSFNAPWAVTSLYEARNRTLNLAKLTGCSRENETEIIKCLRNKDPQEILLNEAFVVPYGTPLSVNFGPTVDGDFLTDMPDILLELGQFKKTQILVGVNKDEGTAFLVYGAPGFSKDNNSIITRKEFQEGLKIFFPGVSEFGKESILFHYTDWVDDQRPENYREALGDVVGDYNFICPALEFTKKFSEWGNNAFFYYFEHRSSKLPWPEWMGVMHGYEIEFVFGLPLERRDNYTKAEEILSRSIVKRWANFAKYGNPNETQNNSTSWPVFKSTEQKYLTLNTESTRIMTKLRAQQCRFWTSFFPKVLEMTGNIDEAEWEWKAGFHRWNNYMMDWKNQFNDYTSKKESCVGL

Molecular target: Cholinesterase (Homo sapiens, UniProt P06276)
Assay: Inhibition of human recombinant BuChe using butyrylthiocholine iodide as substrate incubated for 10 mins by DTNB reagent based Ellman's method

CCN(C)C(=O)Oc1cccc([C@H](C)N(C)C)c1 [RIVASTIGMINE]
IC50: 14.2 µM
